## Antibody variant affinities, Ab-95 light chain, assay 2

Values reported by Engelhart et al. 2022, doi:10.1038/s41597-022-01779-4 (FLAb copy).

Binding partner: SARS-CoV-2 spike HR2 peptide, sequence PDVDLGDISGINAS.

Ab-95 is the parent antibody, in scFv form: VH, then a (GGGGS)3 linker, then VL. The heavy chain is unchanged in all variants.
VH: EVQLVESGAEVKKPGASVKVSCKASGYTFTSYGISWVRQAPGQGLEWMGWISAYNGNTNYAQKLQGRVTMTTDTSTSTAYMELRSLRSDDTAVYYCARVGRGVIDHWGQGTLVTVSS
VL: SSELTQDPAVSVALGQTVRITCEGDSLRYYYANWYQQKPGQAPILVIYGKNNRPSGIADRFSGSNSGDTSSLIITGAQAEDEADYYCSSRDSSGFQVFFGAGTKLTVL

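Phage display of a naive human antibody library on the peptide gave the parent. Variants in AAYL52 differ from the parent at up to three CDR positions; double and triple changes were sampled at random. The assay is AlphaSeq: two haploid yeast populations carry antibody and antigen on their surface. Binding brings cells together so that they mate, and sequencing counts the barcode pairs among the diploids. The ratio of observed to expected reads was calibrated, replicate by replicate, on BCL2-family standards whose Kd was known from biolayer interferometry. Each pool was mated in three replicate cultures.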

The parent's light chain CDRs are EGDSLRYYYAN, GKNNRPS, SSRDSSGFQVF; each variant's own CDRs replace them letter for letter. This list gathers variants with a substitution at S26 (VL, numbered from residue 1). Each Kd is an estimate from the mating assay, the geometric mean of the replicates in which the pair was seen; lower is stronger. Where no diploid with the target was found in any replicate, the entry reads "no signal": below detection, most likely a poor binder, though not proof of it. Background: pairings of library AAYL52 with three empty control strains gave a value in 28% of cases (median 8.2 µM, 5th percentile 800 nM). Values in that range, when seen in few replicates, are hard to tell from nonspecific mating.

- EGDNLRYYYAN / GKNNRPS / SSGDSSGFQVF -> 990 nM (1 of 3 replicates)
- EGDPLRYYVAN / GKNNRPS / SSRDSSGQQVF -> 2.1 µM (2 of 3 replicates)
- EGDTLRYYYAN / GKNNRPS / SSIMSSGFQVF -> 5.8 µM (1 of 3 replicates)
- EGDQLREYYAN / GQNNRPS / SSRDSSGFQVF -> 73 nM (3 of 3 replicates)
- EGDQLRYYYAN / GKNNRPS / SSRDSYGFQVC -> 2.3 µM (3 of 3 replicates)
- EGDKLRYYYAN / GKNNRPS / SSRDSSGFQKF -> 1.8 µM (3 of 3 replicates)
- EGDDLREYYAN / GKFNRPS / SSRDSSGFQVF -> 11 µM (2 of 3 replicates)
- EGDMLRYYYAN / GKNNRPS / SSSDSSGFQVF -> 11 µM (2 of 3 replicates)
- EGDMLRYYYAN / GKNNRPS / SSRDSSGYQFF -> 12 µM (2 of 3 replicates)
- EGDQLRYYYAN / GKNNRYS / SSRDSSGFQVF -> 16 µM (1 of 3 replicates)
- EGDELRYYYEN / GKNNRPS / SSRDSSMFQVF -> no signal (0 of 3 replicates)
- EGDLLRYYYAN / GKNNHPS / SSRDSDGFQVF -> no signal (0 of 3 replicates)
- EGDGLRYYYAN / GKHNRPS / SSRDSSGFQVQ -> 12 µM (2 of 3 replicates)
- EGDPLRYYYAM / GKNNRPS / RSRDSSGFQVF -> 26 µM (2 of 3 replicates)
- EGDGVRYYYAN / GKNNRPS / SERDSSGFQVF -> 10 µM (1 of 3 replicates)
- EGDHLRYWYAN / GKNNRPS / ESRDSSGFQVF -> 760 nM (3 of 3 replicates)
- EGDVVRYYYAN / GKNNRPS / SSRDSSGFQVL -> 2.0 µM (3 of 3 replicates)
- EGDWLRYYYAG / GKNNRPS / SVRDSSGFQVF -> no signal (0 of 3 replicates)
- EGDFLRYYYAN / GSNNRES / SSRDSSGFQVF -> no signal (0 of 3 replicates)
- FGDMLRYYYAN / GKNNRPS / VSRDSSGFQVF -> 660 nM (2 of 3 replicates)
- EGDDLRYYDAN / GKNNRPS / KSRDSSGFQVF -> 12 nM (3 of 3 replicates)
- EGDKLRYYYAN / GKNNRPS / SSRDSSGFQVF -> 2.6 µM (1 of 3 replicates)
- EGDPLRYYYAN / GKNNRPS / SSRHSSGFQVP -> 380 nM (3 of 3 replicates)
- EGDKLRYYYAN / GQNNRPS / SSRDSSIFQVF -> 19 µM (3 of 3 replicates)
- EGDYLRYYYPN / GKNNRPS / SSRDSSGFQVF -> 360 nM (3 of 3 replicates)
- EGDDLRYYYAN / GKINRPS / SSRDSSGCQVF -> 4.9 µM (2 of 3 replicates)
- EGDLLRYYYAN / GKNNYPS / SSRDSSGFQVY -> 25 µM (1 of 3 replicates)
- EGDPLRGYYEN / GKNNRPS / SSRDSSGFQVF -> 730 nM (3 of 3 replicates)
- EGDGLRYYYAN / GKNNRPS / SSRDSSGFQCR -> 57 nM (3 of 3 replicates)
- EGDALRYYYAN / VKNNRPS / SSRRSSGFQVF -> 26 µM (1 of 3 replicates)
- EGDGLRYYYAR / GKNNRPS / SSRDSSGFQVF -> 7.8 µM (1 of 3 replicates)
- PGDMLRYYYAN / GKNNRVS / SSRDSSGFQVF -> 1.8 µM (1 of 3 replicates)
- EGDPLPYYYAN / GKNNRPC / SSRDSSGFQVF -> 780 nM (3 of 3 replicates)
- EADMLRYYYAN / GKNNRPS / SSRDSSGKQVF -> 47 µM (2 of 3 replicates)
- EGDYLGYYYAN / GKNNRPS / GSRDSSGFQVF -> 10 µM (2 of 3 replicates)
- EGDILRYSYAG / GKNNRPS / SSRDSSGFQVF -> 2.5 µM (3 of 3 replicates)
- EGDRLRYYYAN / GQNNRPS / PSRDSSGFQVF -> 4.7 µM (3 of 3 replicates)
- EGDDLRHYYAN / GKNNRPS / SSRDSSGFLVF -> 230 nM (3 of 3 replicates)

The 2 strongest on average among those seen in every replicate, once more:

- EGDDLRYYDAN / GKNNRPS / KSRDSSGFQVF = 12 nM (3 of 3 replicates)
- EGDGLRYYYAN / GKNNRPS / SSRDSSGFQCR = 57 nM (3 of 3 replicates)

In this assay the parent's reference entry averaged 200 nM; its copy inside this library read 180 nM.